Laboratory results as given in patent US20100196376A1, “METHOD FOR REDUCING ALLERGEN-INDUCED AIRWAY HYPERRESPONSIVENESS” (National Jewish Health, priority 2001, published 2010).

Key:
Assay type in all cases: in vivo, mouse (BALB/c)
[1] = system: ovalbumin-sensitized and challenged mice (BAL eosinophils); experiment: Bronchoalveolar lavage (BAL) differential cell counts, ovalbumin-sensitized and challenged mice; conditions: i.p. 2 h prior to each allergen challenge; CGRP 20 μg/kg, CGRP fragment 8-37 100 μg/kg (FIG. 3C)
Procedure: (§1) Mice (8/group/experiment) were sensitized by intraperitoneal injection of 20 μg of ovalbumin (Grade V, Sigma) emulsified in 2.25 mg alum (Alum® Inject; Pierce, Rockford, Ill.) in a total volume of 100 μl on days 0 and 14. On days 28, 29 and 30, mice were challenged via the airways by a 20-minute inhalation exposure to aerosols of ovalbumin (1% in saline) obtained from a DeVilbiss ultrasonic nebulizer (particle size 1-5 μm). Age-matched, control animal groups (8/group/experiment) consisted of mice injected with alum alone (non-sensitized) and exposed either to aerosols of saline or to aerosolized ovalbumin, and mice sensitized to ovalbumin but subsequently exposed to aerosols of saline.
Following assessment of airway function, the lungs were lavaged once with 1 ml of sterile Hank's balanced salt solution (HBSS) pre-warmed at 37° C. The recovered BAL fluids were placed in Eppendorf tubes and were centrifuged at 4° C. for 5 min at 1,500 rpm. The obtained cell pellets were resuspended in 200 μl of sterile phosphate-buffered saline (PBS) and total cell numbers were determined from counting of crystal violet-stained aliquots using a hemacytometer. Differential cell counts were determined from cytospin preparations stained with Leukostat (Fisher Diagnostics, Pittsburgh, Pa.). At least 200 cells were counted from each slide in a blinded fashion.

[2] = system: ovalbumin-sensitized and challenged mice (tissue infiltrating eosinophils); experiment: Tissue infiltrating eosinophils, MBP immunoperoxidase and morphometric analysis of lung sections; conditions: i.p. 2 h prior to each allergen challenge; CGRP 20 μg/kg, CGRP fragment 8-37 100 μg/kg (FIG. 3D)
Procedure: For histology and immunohistochemistry, the lungs of the mice were inflated and fixed with 4% paraformaldehyde in PBS for 24 h at 4° C. followed by processing into paraffin. Five μm-thick sections were cut from the paraffin blocks, deparaffinized and stained with hematoxylin and eosin for routine histology. Mucus-containing goblet cells were visualized by staining with Periodic Acid Shiff (PAS)-alcian blue.
The pan neuronal marker PGP9.5, CGRP and tissue eosinophils were detected by immunoperoxidase. Unless otherwise stated, all incubations were carried out at room temperature. All washes were performed with TBS (50 mM TRIS-buffered saline pH 7.6) 3 times for 5 min. […]
For tissue eosinophils, the sections were pretreated for 5 min with 0.01% trypsin in TBS to retrieve antigens. […] CGRP was detected with a polyclonal rabbit anti-CGRP antibody (Biogenesis) diluted 1:200. […]
The data of immunohistochemistry were quantitatively analyzed (morphometric analysis) on a G-3 Macintosh computer using the National Institutes of Health (NIH) Scion Image analysis software. […]
The number of tissue infiltrating eosinophils was determined by counting all MBP-positive cells present in the airway wall including the adventitia. When eosinophils were present in tissue areas connecting blood vessels to adjacent airways only 50% of these cells were counted for these airways. […]

[3] = system: ovalbumin-sensitized and challenged mice (airway hyperresponsiveness to methacholine); experiment: Airway function: change in lung resistance (RL) and dynamic compliance (Cdyn) after aerosolized methacholine, ovalbumin-sensitized and challenged mice
Procedure: as §1
Briefly, mice were sensitized and challenged to ovalbumin as described in Example 1. Airway function was assessed in vivo in anesthetized, mechanically ventilated mice as previously described (see, for example, Takeda et al., 1997, J. Exp. Med. 186, 449-454) by measuring changes in lung resistance (RL) and dynamic compliance (Cdyn) in response to intratracheal challenge with aerosolized methacholine at doses of 1.56, 3.125, 6.25 and 12.5 mg/ml in saline. Baseline values were recorded from data obtained after intra-tracheal challenge with aerosolized saline. The data are presented in percent of change from baseline RL, and Cdyn.

With calcitonin gene-related peptide [CGRP] the “Numbers of BAL eosinophils” value [1] was “no significant effect”, the “Numbers of tissue infiltrating eosinophils” value [2] was “no significant effect” and the “AHR in sensitized mice” value ([3]; administration after the period of allergen challenge, CGRP i.p. at 2 h prior to assessment of airway function (FIGS. 4A, 4B)) was “abolished”. For the same substance, the “AHR in sensitized and challenged mice, aerosolized CGRP” value ([3]; exposed for 15 minutes to aerosolized CGRP (10^−6M) at 2 h before assessment of airway function (FIGS. 5A, 5B)) was “abolished” and the “Extent / development of AHR” value ([3]; i.p. 2 h prior to each allergen challenge, CGRP 20 μg/kg, CGRP fragment 8-37 100 μg/kg (FIGS. 3A, 3B)) was “completely suppressed”.
